{"sequences": {"note": "Protein sequences, listed by entry. Tags and fused reporters are not part of them.", "UniProt P14416, whole entry": "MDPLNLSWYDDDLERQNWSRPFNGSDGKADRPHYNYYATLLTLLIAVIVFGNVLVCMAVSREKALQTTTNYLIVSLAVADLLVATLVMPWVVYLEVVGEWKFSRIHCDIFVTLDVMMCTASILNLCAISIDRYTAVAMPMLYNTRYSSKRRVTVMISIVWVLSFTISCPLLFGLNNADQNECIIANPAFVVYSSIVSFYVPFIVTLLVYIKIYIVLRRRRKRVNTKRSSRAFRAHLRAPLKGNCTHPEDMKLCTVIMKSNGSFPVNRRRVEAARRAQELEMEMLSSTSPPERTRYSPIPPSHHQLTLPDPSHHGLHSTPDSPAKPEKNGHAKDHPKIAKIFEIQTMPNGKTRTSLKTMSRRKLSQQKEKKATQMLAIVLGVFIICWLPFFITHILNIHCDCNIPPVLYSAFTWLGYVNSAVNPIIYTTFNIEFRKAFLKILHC"}, "source": "ChEMBL document CHEMBL4219212", "about": "“Synthesis of 3-(3-hydroxyphenyl)pyrrolidine dopamine D3 receptor ligands with extended functionality for probing the secondary binding pocket” (Bioorg Med Chem Lett, 2018)", "molecular_target": "D(2) dopamine receptor (Homo sapiens, UniProt P14416)", "assay": "Binding affinity to human dopamine D2 receptor", "data": [{"smiles": "CCCN1CCC[C@@H](c2cccc(O)c2)C1", "note": "[PRECLAMOL]", "values": [{"measurement": "Ki", "result": 137, "unit": "nM"}]}]}
